Results: publication PMC7115756

Biological target: Recombinant wild-type human transthyretin (wt rhTTR) (human) (UniProt P02766)
Assay: ITC

Kd: 940 nM | stoichiometry N: 1
Substance: Aβ(1–42) peptide (peptide; modification not given; other documents disagree on this pair)
